The target of the experiment is T1, wild type human βA3-crystallin (human, UniProt P05813 1-215).
T1 construct: human βA3-crystallin, wild type, recombinant; no tag is mentioned; also called WT βA3; βA3 WT; source: E. coli, purified (successive ion-exchange chromatography)
T1 sequence (looked up): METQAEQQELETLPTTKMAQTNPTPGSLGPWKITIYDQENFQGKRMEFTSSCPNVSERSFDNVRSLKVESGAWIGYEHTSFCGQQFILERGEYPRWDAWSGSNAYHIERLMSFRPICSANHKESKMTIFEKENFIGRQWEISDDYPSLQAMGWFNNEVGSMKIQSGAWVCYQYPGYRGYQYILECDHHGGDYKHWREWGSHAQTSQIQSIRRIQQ
In words: SEC-MALS; 1:1 molar ratio of βA3 (WT or DM) with βB1 or βB2, final 0.4–0.5 mg/ml, incubated at 37 °C for 90 min (time course 30–300 min); pH 6.8 phosphate, 100 mM KCl, 1 mM EDTA, 1 mM DTT; peak fractions checked by SDS-PAGE. To be noted: both partners purified.

B1: wild type human βB2-crystallin (natural protein, UniProt P43320 1-205, looked up)
chain: MASDHQTQAGKPQSLNPKIIIFEQENFQGHSHELNGPCPNLKETGVEKAGSVLVQAGPWVGYEQANCKGEQFVFEKGEYPRWDSWTSSRRTDSLSSLRPIKVDSQEHKIILYENPNFTGKKMEIIDDDVPSFHAHGYQEKVSSVRVQSGTWVGYQYPGYRGLQYLLEKGDYKDSSDFGAPHPQVQSVRRIRDMQWHQRGAFHPSN
notes: human βB2-crystallin, wild type, recombinant; source: E. coli, purified (successive ion-exchange chromatography)
On to B1, for which the binding result is “binds”.

Values taken from article PMC2633459 (Molecular Vision, 2009).
